Data as given in ChEMBL document CHEMBL1144273, “Synthesis and SAR studies of 3-phenoxypropyl piperidine analogues as ORL1 (NOP) receptor agonists” (Bioorg Med Chem Lett, 2005).

Species: Mus musculus
Assay: Inhibitory concentration using mouse vas deferens (MVD) assay

Structure (SMILES): COc1ccc(C)c(OC(CCN2CCC(n3c(=O)[nH]c4ccccc43)CC2)C(C)C)c1 (stereo unspecified) [ORGANON]
- IC50: 977 nM
